Measurements published in PubChem BioAssay (NCI).
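Growth conditions: 96-well plates. Treatment: test compound, 48 hours, 5 concentrations. Analysis: linear interpolation between bracketing concentrations; unreached endpoints set to highest concentration. Here, GI50 denotes the concentration required for 50% inhibition of growth. TGI marks complete inhibition of growth.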

What was measured:
Experiment in all cases: NCI-60 cell line screen, 48 h
[1] = tested on: A498 renal
[2] = tested on: OVCAR-5 ovarian
[3] = tested on: SW-620 colon
[4] = tested on: UACC-257 melanoma
[5] = tested on: DU-145 prostate
[6] = tested on: SK-MEL-5 melanoma
[7] = tested on: MDA-N
[8] = tested on: HCC-2998 colon
[9] = tested on: OVCAR-8 ovarian
[10] = tested on: MDA-MB-231 breast
[11] = tested on: OVCAR-3 ovarian
[12] = tested on: HOP-92 NSCLC
[13] = tested on: COLO 205 colon
[14] = tested on: MDA-MB-435
[15] = tested on: SK-MEL-28 melanoma
[16] = tested on: MOLT-4 leukemia
[17] = tested on: NCI-H460 lung
[18] = tested on: K-562 leukemia
[19] = tested on: U251 CNS
[20] = tested on: LOX IMVI melanoma
[21] = tested on: SF-268 CNS
[22] = tested on: SK-OV-3 ovarian
[23] = tested on: SNB-75 CNS
[24] = tested on: EKVX NSCLC
[25] = tested on: HCT-15 colon
[26] = tested on: NCI-H522 lung
[27] = tested on: 786-0 renal
[28] = tested on: T-47D breast
[29] = tested on: KM12 colon
[30] = tested on: HOP-62 NSCLC
[31] = tested on: NCI-H322M lung
[32] = tested on: UO-31 renal
[33] = tested on: SF-295 CNS
[34] = tested on: HCT-116 colon
[35] = tested on: RPMI-8226 leukemia
[36] = tested on: ACHN renal
[37] = tested on: BT-549 breast
[38] = tested on: M14 melanoma
[39] = tested on: SNB-19 CNS
[40] = tested on: SR leukemia
[41] = tested on: TK-10 renal
[42] = tested on: MALME-3M melanoma
[43] = tested on: A549 NSCLC
[44] = tested on: OVCAR-4 ovarian
[45] = tested on: UACC-62 melanoma
[46] = tested on: SK-MEL-2 melanoma
[47] = tested on: HL-60(TB) leukemia
[48] = tested on: SN12C renal
[49] = tested on: RXF 393 renal
[50] = tested on: CAKI-1 renal
[51] = tested on: NCI-H23 lung
[52] = tested on: NCI/ADR-RES ovarian
[53] = tested on: HS 578T breast
[54] = tested on: CCRF-CEM leukemia
[55] = tested on: HT29 colon
[56] = tested on: NCI-H226 lung
[57] = tested on: IGROV1 ovarian
[58] = tested on: MCF7 breast
[59] = tested on: PC-3 prostate
[60] = tested on: SF-539 CNS

Molecule `O=[N+]([O-])C(F)(CCNCC(F)([N+](=O)[O-])[N+](=O)[O-])[N+](=O)[O-]` has a GI50 [1] of 8.3 µM, a TGI [1] of 24.5 µM and a GI50 [2] of 4.24 µM. It also gave a TGI [2] of 16.9 µM, a GI50 [3] of 1.1 µM and a TGI [3] of 15.3 µM. The GI50 [4] was 2.83 µM, the TGI [4] was 8.75 µM and the GI50 [5] was 2.01 µM. For the same molecule, the TGI [5] was 4.82 µM, the GI50 [6] was 1.34 µM and the TGI [6] was 3.26 µM. The GI50 [7] was 0.576 µM, the TGI [7] was 2.32 µM and the GI50 [8] was 1.75 µM. The TGI [8] was 4.21 µM, the GI50 [9] was 2.44 µM and the TGI [9] was 18.8 µM. For the same molecule, the GI50 [10] was 2.91 µM, the TGI [10] was 10.4 µM and the GI50 [11] was 2 µM. It also gave a TGI [11] of 4.81 µM, a GI50 [12] of 1.66 µM and a TGI [12] of 3.9 µM. The GI50 [13] was 1.76 µM, the TGI [13] was 3.77 µM and the GI50 [14] was 0.625 µM. The TGI [14] was 3.22 µM, the GI50 [15] was 4.74 µM and the TGI [15] was 34.3 µM. The GI50 [16] was 1.6 µM, the TGI [16] was 8.45 µM and the GI50 [17] was 2.64 µM. The TGI [17] was 10.5 µM, the GI50 [18] was 0.401 µM and the TGI [18] was 2.97 µM. For the same molecule, the GI50 [19] was 4.23 µM, the TGI [19] was 18.2 µM and the GI50 [20] was 1.87 µM. It also gave a TGI [20] of 9.4 µM, a GI50 [21] of 3.93 µM and a TGI [21] of 25.3 µM. For the same molecule, the GI50 [22] was 7.39 µM, the TGI [22] was 22.4 µM and the GI50 [23] was 10.1 µM. The TGI [23] was 27.5 µM, the GI50 [24] was 2.08 µM and the TGI [24] was 5.24 µM. It also gave a GI50 [25] of 1.34 µM, a TGI [25] of 16.3 µM and a GI50 [26] of 0.529 µM. For the same molecule, the TGI [26] was 1.97 µM, the GI50 [27] was 1.98 µM and the TGI [27] was 5.82 µM. For the same molecule, the GI50 [28] was 2.27 µM, the TGI [28] was 7.96 µM and the GI50 [29] was 1.86 µM. The TGI [29] was 4.66 µM, the GI50 [30] was 3.23 µM and the TGI [30] was 10.5 µM. It also gave a GI50 [31] of 14.2 µM, a TGI [31] of 35.9 µM and a GI50 [32] of 2.31 µM. For the same molecule, the TGI [32] was 5.34 µM, the GI50 [33] was 8.67 µM and the TGI [33] was 23.5 µM. It also gave a GI50 [34] of 1.35 µM, a TGI [34] of 8.91 µM and a GI50 [35] of 0.344 µM. It also gave a TGI [35] of 2.58 µM, a GI50 [36] of 1.99 µM and a TGI [36] of 10.2 µM. The GI50 [37] was 1.34 µM, the TGI [37] was 3.7 µM and the GI50 [38] was 1.48 µM. It also gave a TGI [38] of 4.12 µM, a GI50 [39] of 3.08 µM and a TGI [39] of 15 µM. The GI50 [40] was 0.226 µM, the TGI [40] was 0.841 µM and the GI50 [41] was 2.39 µM. It also gave a TGI [41] of 19.3 µM, a GI50 [42] of 1.56 µM and a TGI [42] of 3.48 µM. The GI50 [43] was 5.74 µM, the TGI [43] was 21.5 µM and the GI50 [44] was 3.86 µM. It also gave a TGI [44] of 12.9 µM, a GI50 [45] of 1.58 µM and a TGI [45] of 3.71 µM. For the same molecule, the GI50 [46] was 2.77 µM, the TGI [46] was 8.16 µM and the GI50 [47] was 0.397 µM. The TGI [47] was 1.48 µM, the GI50 [48] was 2.25 µM and the TGI [48] was 5.84 µM. For the same molecule, the GI50 [49] was 9.23 µM, the TGI [49] was 25.6 µM and the GI50 [50] was 2.35 µM. The TGI [50] was 6.35 µM, the GI50 [51] was 2.78 µM and the TGI [51] was 13.4 µM. For the same molecule, the GI50 [52] was 3.16 µM, the TGI [52] was 17.9 µM and the GI50 [53] was 8.08 µM. It also gave a TGI [53] of 28.1 µM, a GI50 [54] of 0.632 µM and a TGI [54] of 4.11 µM. It also gave a GI50 [55] of 1.86 µM, a TGI [55] of 16.7 µM and a GI50 [56] of 9.88 µM. The TGI [56] was 40.8 µM, the GI50 [57] was 1 µM and the TGI [57] was 2.74 µM. It also gave a GI50 [58] of 1.56 µM, a TGI [58] of 18.4 µM and a GI50 [59] of 2.65 µM. For the same molecule, the TGI [59] was 9.15 µM.
In the case of `CC1=CC23C(COC(=O)C24CO4)C(C(=O)O)=CC3C1C.NCc1ccccc1` (stereo not drawn), the TGI [1] is reported as 8.25 µM, the TGI [2] is reported as > 100 µM and the TGI [3] is reported as 60.4 µM. For the same molecule, the TGI [4] was > 100 µM, the TGI [5] was 17.8 µM and the TGI [6] was 7.77 µM. The TGI [7] was 13.7 µM, the TGI [8] was 11.8 µM and the TGI [9] was 12.2 µM. The TGI [10] was > 100 µM, the TGI [11] was > 100 µM and the TGI [12] was 2.75 µM. For the same molecule, the TGI [13] was 75.5 µM, the TGI [14] was 30.3 µM and the TGI [15] was 0.393 µM. The TGI [16] was 9.4 µM, the TGI [17] was 11 µM and the TGI [18] was 19.7 µM. The TGI [19] was 59.1 µM, the TGI [20] was 3.98 µM and the TGI [21] was 3.17 µM. The TGI [22] was 43.9 µM, the TGI [23] was 19.2 µM and the TGI [24] was > 100 µM. It also gave a TGI [60] of 7.31 µM, a TGI [25] of 23.9 µM and a TGI [26] of 0.541 µM. The TGI [27] was 13.2 µM, the TGI [28] was 15.3 µM and the TGI [29] was 5.11 µM. For the same molecule, the TGI [30] was 7.37 µM, the TGI [31] was 6.5 µM and the TGI [32] was > 100 µM. For the same molecule, the TGI [33] was > 100 µM, the TGI [34] was 21.7 µM and the TGI [35] was 0.679 µM. For the same molecule, the TGI [36] was 55.3 µM, the TGI [37] was > 100 µM and the TGI [38] was 0.989 µM. For the same molecule, the TGI [39] was > 100 µM, the TGI [40] was 13.4 µM and the TGI [41] was 57.5 µM. It also gave a TGI [42] of 1.18 µM, a TGI [43] of 29.7 µM and a TGI [44] of 46 µM. It also gave a TGI [45] of 2.53 µM, a TGI [46] of 0.62 µM and a TGI [47] of 24.4 µM. The TGI [48] was 2.66 µM, the TGI [49] was 2.04 µM and the TGI [50] was 10.7 µM. The TGI [51] was 33.7 µM, the TGI [52] was 4.69 µM and the TGI [53] was 0.941 µM. For the same molecule, the TGI [54] was 8.06 µM, the TGI [55] was 35.7 µM and the TGI [56] was 11.7 µM. For the same molecule, the TGI [57] was 14.8 µM, the TGI [58] was > 100 µM and the TGI [59] was 17.6 µM.
